According to paper PMC8698302, “An Antibacterial Peptide with High Resistance to Trypsin Obtained by Substituting D-Amino Acids for Trypsin Cleavage Sites” (Antibiotics, 2021):
Values after ≈ are worked out from the molar mass of the structure shown.

Key:
Type in all cases: cell-based
[1] = test system: Escherichia coli ATCC 25922; test: Trypsin resistance assay (MIC after trypsin treatment); conditions: repeated three times
Method: The effect of different concentrations of trypsin on the antimicrobial activity of peptides was tested using previously reported methods. Trypsin was prepared to the required concentration. In the sterile 96-well plates, the peptide was continuously twofold diluted to different concentrations in trypsin solution. The plates were incubated at 37 °C, and the incubation time was determined according to the experiment requirements. The peptide alone and protease alone were used as a control. Samples were taken at different times, heated at 100 °C for 15 min to inactivate the protease, and centrifuged at 13,000× g for 30 min to precipitate the protease. […] The indicator bacterium was Escherichia coli ATCC25922. This experiment was repeated three times.

[2] = test system: Escherichia coli ATCC25922; test: Physiological salt sensitivity assay (MIC)
Method: The peptide salt sensitivity was evaluated by measuring the MIC. The method is as previously described. The peptides were diluted in deionized water containing different salts, and then an equal volume of Escherichia coli ATCC25922 solution (10^5 cfu/mL) was added. The mixture was incubated at 37 °C for 16 h. The final physiological concentrations of these salts were 150 mM NaCl, 4.5 mM KCl, 6 μM NH4Cl, 1 mM MgCl2, 8 μM ZnCl2 and 4 μM FeCl3, respectively. This experiment was repeated three times.

[3] = test system: Escherichia coli ATCC25922; test: Temperature sensitivity assay (MIC)
Method: The temperature and pH sensitivities of the peptides were determined by an MIC assay as described previously. For temperature sensitivity, the diluted peptide solution was incubated at 0 °C, 37 °C, 42 °C, 65 °C and 100 °C, respectively, for 30 min, then stopped heating and returned to room temperature. An equal volume of Escherichia coli ATCC25922 (10^5 CFU/mL) was added, and the mixture was incubated at 37 °C for 16 h. MIC values were observed. This experiment was repeated three times.

[4] = test system: Escherichia coli ATCC25922; test: pH sensitivity assay (MIC); conditions: then MIC 16 h 37 °C, repeated three times
Method: For pH sensitivity, we adjusted the diluent to pH 4.0, 6.0, 8.0 and 10.0 with HCl or NaOH, and then diluted the peptide with this diluent. The peptide solutions of different pH were incubated for 1 h, and then the pH of the reaction solution was neutralized by HCl or NaOH to terminate the reaction. An equal volume of Escherichia coli ATCC25922 (10^5 CFU/mL) was added, and the mixture was incubated at 37 °C for 16 h. MIC values were observed. This experiment was repeated three times.

[5] = test system: Escherichia coli ATCC 25922; test: Serum sensitivity assay (MIC)
Method: (§1) The serum sensitivities of the peptides were determined by an MIC assay as described previously. Bovine serum and rabbit plasma solutions of different concentrations (12.5%, 25%, 50% and 100%) were used as the diluent of the peptide, and the peptides were twice diluted and incubated at 37 °C for 1 h. After that, the reaction was terminated after treatment at 100 °C for 15 min and cooled to room temperature. The same volume of Escherichia coli ATCC25922 solution (10^5 CFU/mL) was incubated for 16 h at 37 °C. The change of MIC value was observed. This experiment was repeated three times.

[6] = test system: Escherichia coli ATCC 25922; test: Plasma sensitivity assay (MIC); conditions: 37 °C 1 h, 100 °C 15 min, then MIC 16 h 37 °C, repeated three times
Method: as §1

With `CC[C@H](C)[C@H](NC(=O)CN)C(=O)NCC(=O)N[C@@H](C)C(=O)N[C@H](C(=O)N[C@@H](CC(C)C)C(=O)N[C@@H](CCCCN)C(=O)N[C@H](C(=O)N[C@@H](CC(C)C)C(=O)N[C@H](C(=O)N[C@H](C(=O)NCC(=O)N[C@@H](CC(C)C)C(=O)N1CCC[C@H]1C(=O)N[C@@H](C)C(=O)N[C@@H](CC(C)C)C(=O)N[C@H](C(=O)N[C@@H](CO)C(=O)N[C@@H](Cc1c[nH]c2ccccc12)C(=O)N[C@H](C(=O)N[C@@H](CCCCN)C(=O)N[C@@H](CCCNC(=N)N)C(=O)N[C@@H](CCCCN)C(=O)N[C@@H](CCCNC(=N)N)C(=O)N[C@@H](CCC(N)=O)C(=O)N[C@@H](CCC(N)=O)C(N)=O)[C@@H](C)CC)[C@@H](C)CC)[C@@H](C)O)[C@@H](C)O)C(C)C)C(C)C` [Melittin] the “MIC, Control” value ([1]; control, in the absence of proteases) was 2 µg/mL (≈ 0.703 µM), the “MIC in the presence of trypsin, 0.625 mg/mL” value ([1]; peptide incubated in trypsin 0.625 mg/mL at 37 °C (time not given), 100 °C 15 min, centrifuged, then MIC 16 h 37 °C) was 16 µg/mL and the “MIC in the presence of trypsin, 1.25 mg/mL” value ([1]; peptide incubated in trypsin 1.25 mg/mL at 37 °C (time not given), 100 °C 15 min, centrifuged, then MIC 16 h 37 °C) was 32 µg/mL. For the same compound, the “MIC in the presence of trypsin, 2.5 mg/mL” value ([1]; peptide incubated in trypsin 2.5 mg/mL at 37 °C (time not given), 100 °C 15 min, centrifuged, then MIC 16 h 37 °C) was 64 µg/mL, the “MIC in the presence of trypsin, 5 mg/mL” value ([1]; peptide incubated in trypsin 5 mg/mL at 37 °C (time not given), 100 °C 15 min, centrifuged, then MIC 16 h 37 °C) was greater than 128 µg/mL and the “MIC in the presence of trypsin, 10 mg/mL” value ([1]; peptide incubated in trypsin 10 mg/mL at 37 °C (time not given), 100 °C 15 min to inactivate, centrifuged 13,000 g 30 min, then bacteria 10^5 CFU/mL, 16 h 37 °C) was greater than 128 µg/mL. For the same compound, the “MIC after trypsin (10 mg/mL), 1 h” value ([1]; trypsin 10 mg/mL, 1 h at 37 °C, 100 °C 15 min, centrifuged, then MIC 16 h 37 °C) was greater than 128 µg/mL, the “MIC after trypsin (10 mg/mL), 2 h” value ([1]; trypsin 10 mg/mL, 2 h at 37 °C, 100 °C 15 min, centrifuged, then MIC 16 h 37 °C) was greater than 128 µg/mL and the “MIC after trypsin (10 mg/mL), 4 h” value ([1]; trypsin 10 mg/mL, 4 h at 37 °C, 100 °C 15 min, centrifuged, then MIC 16 h 37 °C) was greater than 128 µg/mL. For the same compound, the “MIC in the presence of FeCl3” value ([2]; 4 μM FeCl3 final, 10^5 cfu/mL, 37 °C 16 h, repeated three times) was 2 µg/mL, the “MIC in the presence of NH4Cl” value ([2]; 6 μM NH4Cl final, 10^5 cfu/mL, 37 °C 16 h, repeated three times) was 2 µg/mL and the “MIC in the presence of ZnCl2” value ([2]; 8 μM ZnCl2 final, 10^5 cfu/mL, 37 °C 16 h, repeated three times) was 2 µg/mL. For the same compound, the “MIC in the presence of MgCl2” value ([2]; 1 mM MgCl2 final, 10^5 cfu/mL, 37 °C 16 h, repeated three times) was 2 µg/mL, the “MIC in the presence of KCl” value ([2]; 4.5 mM KCl final, 10^5 cfu/mL, 37 °C 16 h, repeated three times) was 2 µg/mL and the “MIC in the presence of NaCl” value ([2]; 150 mM NaCl final, 10^5 cfu/mL, 37 °C 16 h, repeated three times) was 4 µg/mL. The “MIC, Control” value ([2]; control, MHB medium without physiological salts) was 2 µg/mL, the “MIC, Control” value ([3]; control, determined at 37 °C and pH 7.4) was 2 µg/mL (≈ 0.703 µM) and the “MIC after temperature treatment, 0 °C” value ([3]; peptide solution incubated at 0 °C for 30 min, returned to room temperature, then MIC 16 h 37 °C, repeated three times) was 2 µg/mL (≈ 0.703 µM). The “MIC after temperature treatment, 42 °C” value ([3]; peptide solution incubated at 42 °C for 30 min, returned to room temperature, then MIC 16 h 37 °C, repeated three times) was 2 µg/mL (≈ 0.703 µM), the “MIC after temperature treatment, 65 °C” value ([3]; peptide solution incubated at 65 °C for 30 min, returned to room temperature, then MIC 16 h 37 °C, repeated three times) was 2 µg/mL (≈ 0.703 µM) and the “MIC after temperature treatment, 100 °C” value ([3]; peptide solution incubated at 100 °C for 30 min, returned to room temperature, then MIC 16 h 37 °C, repeated three times) was 2 µg/mL (≈ 0.703 µM). For the same compound, the “MIC after pH treatment, pH4” value ([4]; peptide incubated 1 h at pH 4.0 (HCl/NaOH), neutralized) was 2 µg/mL, the “MIC after pH treatment, pH6” value ([4]; peptide incubated 1 h at pH 6.0, neutralized) was 2 µg/mL and the “MIC after pH treatment, pH8” value ([4]; peptide incubated 1 h at pH 8.0, neutralized) was 2 µg/mL. For the same compound, the “MIC after pH treatment, pH10” value ([4]; peptide incubated 1 h at pH 10.0, neutralized) was 2 µg/mL, the “MIC in the presence of serum, 12.5%” value ([5]; bovine serum 12.5% as diluent, 37 °C 1 h, 100 °C 15 min, then MIC 16 h 37 °C, repeated three times) was 32 µg/mL and the “MIC in the presence of serum, 25%” value ([5]; bovine serum 25% as diluent, 37 °C 1 h, 100 °C 15 min, then MIC 16 h 37 °C, repeated three times) was 64 µg/mL. The “MIC in the presence of serum, 50%” value ([5]; bovine serum 50% as diluent, 37 °C 1 h, 100 °C 15 min, then MIC 16 h 37 °C, repeated three times) was 64 µg/mL, the “MIC in the presence of serum, 100%” value ([5]; bovine serum 100% as diluent, 37 °C 1 h, 100 °C 15 min, then MIC 16 h 37 °C, repeated three times) was greater than 128 µg/mL and the “MIC, Control” value ([5]; control, in the absence of serum and plasma) was 2 µg/mL (≈ 0.703 µM). The “MIC in the presence of plasma, 12.5%” value ([6]; rabbit plasma 12.5% as diluent) was greater than 128 µg/mL, the “MIC in the presence of plasma, 25%” value ([6]; rabbit plasma 25% as diluent) was greater than 128 µg/mL and the “MIC in the presence of plasma, 50%” value ([6]; rabbit plasma 50% as diluent) was greater than 128 µg/mL. For the same compound, the “MIC in the presence of plasma, 100%” value ([6]; rabbit plasma 100% as diluent) was greater than 128 µg/mL.
